Data published in patent US8828931B2, “Bifunctional molecules for inhibiting HIV entry” (priority 2008, dated 2014).

Tested on: HIV-1 IIIB-mediated cell fusion (H9/HIV-1 IIIB effector cells, MT-2 target cells)
Conditions: H9/HIV-1 IIIB and MT-2 cells, dye transfer
Protocol: HIV-1-mediated cell-cell fusion was determined by a dye transfer assay (Lu H et al. J Virol Methods 107:155-161, 2003) using Calcein AM-labeled HIV-1IIIB chronically infected H9 (H9/HIV-1 IIIB) cells as effector cells and MT-2 cells as target cells.

CC[C@H](C)[C@H](NC(=O)[C@H](CC(C)C)NC(=O)[C@H](CO)NC(=O)[C@H](Cc1c[nH]cn1)NC(=O)[C@@H](NC(=O)[C@H](CC(C)C)NC(=O)[C@H](CO)NC(=O)[C@@H](NC(=O)[C@H](Cc1ccc(O)cc1)NC(=O)[C@H](CC(N)=O)NC(=O)[C@H](CC(N)=O)NC(=O)[C@@H](NC(=O)[C@H](CCC(=O)O)NC(=O)[C@H](CCCNC(=N)N)NC(=O)[C@H](CC(=O)O)NC(=O)[C@H](Cc1c[nH]c2ccccc12)NC(=O)[C@H](C)NC(=O)[C@H](CCSC)NC(=O)[C@H](Cc1c[nH]c2ccccc12)NC(=O)[C@@H](NC(=O)[C@@H](N)[C@@H](C)O)[C@@H](C)O)[C@@H](C)CC)[C@@H](C)O)[C@@H](C)CC)C(=O)N[C@@H](CCCNC(=N)N)C(=O)N[C@@H](CCCNC(=N)N)C(=O)N[C@@H](CO)C(=O)N[C@@H](CCC(N)=O)C(=O)N[C@@H](CC(N)=O)C(=O)N[C@@H](CCC(N)=O)C(=O)N[C@@H](CCC(N)=O)C(=O)N[C@@H](CCC(=O)O)C(=O)N[C@@H](CCCCN)C(=O)N[C@@H](CC(N)=O)C(=O)N[C@@H](CCC(=O)O)C(=O)N[C@@H](CCC(N)=O)C(=O)N[C@@H](CCC(=O)O)C(=O)N[C@@H](CC(C)C)C(=O)N[C@@H](CC(C)C)C(=O)N[C@@H](CCC(=O)O)C(=O)N[C@@H](CC(C)C)C(=O)N[C@@H](CC(=O)O)C(=O)N[C@@H](CCCCN)C(=O)N[C@@H](Cc1c[nH]c2ccccc12)C(=O)N[C@@H](C)C(=O)N[C@@H](CO)C(=O)N[C@@H](CC(C)C)C(=O)N[C@@H](CC(C)C)C(=O)N[C@@H](Cc1c[nH]c2ccccc12)C(=O)N[C@@H](CC(N)=O)C(=O)N[C@@H](Cc1c[nH]c2ccccc12)C(=O)N[C@@H](Cc1ccccc1)C(=O)O [T1144-C10]
IC50 (read-out: IC50, concentration for inhibiting HIV-1 IIIB-mediated cell fusion): 0.0168 µM
IC90 (read-out: IC90, concentration for inhibiting HIV-1 IIIB-mediated cell fusion): 0.0497 µM
